Details: female, mouse, in vivo, 50 mg/kg

SMILES	T1/2 (po) [µM·h]
Cc1ccc(-c2cc(S(=O)(=O)c3ccc(CN)s3)ccc2S(C)(=O)=O)cc1	1e+06
NCc1ncc(S(=O)(=O)c2cc(C(=O)O)cc(-c3ccccc3)c2)s1	2.3e+06
